Experimental data published in PubChem BioAssay AID624037 (The Scripps Research Institute Molecular Screening Center, 2012).
Only a part is listed here, and it is no random draw. Calls of active or inactive are those of the source.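 Rule for the calls: active = activation above the run's mean over test compounds plus 3 SD (cut at about 23% in these data); inactive = the rest.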

Sequences of proteins named here, by UniProt entry; tags and fusion partners are left off.
UniProt P08912, whole entry, looked up: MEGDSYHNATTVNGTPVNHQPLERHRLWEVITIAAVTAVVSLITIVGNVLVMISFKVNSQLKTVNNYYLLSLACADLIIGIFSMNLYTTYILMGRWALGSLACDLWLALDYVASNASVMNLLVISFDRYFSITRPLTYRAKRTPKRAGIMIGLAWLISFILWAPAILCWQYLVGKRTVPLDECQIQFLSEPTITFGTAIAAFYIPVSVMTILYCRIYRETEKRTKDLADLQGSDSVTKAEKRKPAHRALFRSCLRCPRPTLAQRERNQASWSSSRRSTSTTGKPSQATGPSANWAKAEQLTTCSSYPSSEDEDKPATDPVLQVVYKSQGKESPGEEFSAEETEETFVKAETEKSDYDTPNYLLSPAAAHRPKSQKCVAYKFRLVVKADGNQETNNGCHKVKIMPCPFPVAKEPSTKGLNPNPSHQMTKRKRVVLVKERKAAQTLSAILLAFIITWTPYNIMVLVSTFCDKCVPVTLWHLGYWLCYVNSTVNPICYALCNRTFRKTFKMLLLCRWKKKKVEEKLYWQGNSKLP

These compounds were tested against Muscarinic acetylcholine receptor M5 (Homo sapiens) (UniProt P08912) (assay: CHRM5 activators raising intracellular calcium – CHO-K1 cells, Fluo-8 calcium fluorescence, primary screen (AID 624037;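 note: signal is peak over basal fluorescence ratio across the kinetic read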)). Conditions: CHO-K1 hM5 cells, at 3 µM, stronger effect = higher value, 0% DMSO wells, 100% maximal acetylcholine response.

Row | Compound | activation
1 | O=C(OC1CN2CCC1CC2)c1cccc(Cl)c1 (configuration not stated) | inactive: -7.23%
2 | O=[N+]([O-])c1ccc(O)c(/C=N/Nc2ccc([N+](=O)[O-])cc2[N+](=O)[O-])c1 | inactive: -3.72%
3 | O=[N+]([O-])c1ncn(CCn2cnc([N+](=O)[O-])n2)n1 | inactive: -0.85%
4 | CC(=O)NC(SC(=S)N(C)C)C(Cl)(Cl)Cl (configuration not stated) | inactive: 1.73%
5 | O=[As](O)(c1ccccc1)c1ccc(O)cc1 | inactive: -0.08%
6 | O=P1(N(CCCl)CCCl)OCCC2CCCCN21 (configuration not stated) | inactive: 0.21%
7 | CC1C(=O)OC2CCN3CC4OC4(COC(=O)C(C)(O)C1(C)O)C23 (configuration not stated) | inactive: 3.91%
8 | CCNC(=S)/N=C(\N)N[N+](=O)[O-] | inactive: -1.82%
9 | O=C(NC1CCS(=O)(=O)C1)NP(=S)(Oc1ccccc1)Oc1ccccc1 (configuration not stated) | inactive: -5.52%
10 | c1ccc(-c2nn[nH]n2)c(-c2nn[nH]n2)c1 | inactive: 0.26%
11 | C=C1C(=O)OC2CCN3CC=C(COC(=O)C(C)(O)C4(CO4)C1C)C23 (configuration not stated) | inactive: -2.32%
12 | Cc1ccc(NP(=O)(Oc2cccc(C)c2)Oc2cccc(C)c2)nc1 | inactive: 2.59%
13 | CCN(C(=O)COC(=O)C(O)(c1ccccc1)c1ccccc1)c1c(N)n(Cc2ccccc2)c(=O)[nH]c1=O | inactive: -3.59%
14 | CC(NC(=O)COC(=O)C(O)(c1ccccc1)c1ccccc1)c1ccccc1 (configuration not stated) | inactive: 0.93%
15 | Cc1ccccc1OP(=O)(Nc1ccccn1)Oc1ccccc1C | inactive: -2.36%
16 | O=c1c2cc([N+](=O)[O-])ccc2[nH]c2c([N+](=O)[O-])cc([N+](=O)[O-])cc12 | inactive: 10.8%
17 | CN(C)C(=O)Oc1noc2ccccc12 | inactive: -0.96%
18 | COC(=O)c1cc2c(s1)N=C(c1ccccc1)N(C)P2(=O)N1CCOCC1 (configuration not stated) | inactive: -0.93%
19 | Cc1ccc(OP(=O)(Nc2ccccn2)Oc2ccc(C)cc2)cc1 | inactive: -1.7%
20 | CC(=O)NC(SC(=S)N(CC(C)C)CC(C)C)C(Cl)(Cl)Cl (configuration not stated) | inactive: 1.35%
21 | O=C(OC1CN2CCC1CC2)c1ccccc1 (configuration not stated) | inactive: -1.43%

Row | Compound | activation
22 | CCC(=O)N1C2C3N(C(=O)CC)C1C1N(C(=O)CC)C(C(N1C(=O)CC)N3C(=O)CC)N2C(=O)CC | inactive: -3.09%
23 | Clc1ccc(N2CCN(Cc3c[nH]c4ncccc34)CC2)cc1 | inactive: 2.59%
24 | CCc1cc(O)c([N+](=O)[O-])c(C)c1[N+](=O)[O-] | inactive: 4.31%
25 | CC(C)(C)C(=O)NC(Sc1ccccc1)C(Cl)(Cl)Cl (configuration not stated) | inactive: -3.58%
26 | O=P1(Nc2nc3ccc(Cl)cc3s2)COc2ccccc2O1 (configuration not stated) | inactive: -3.36%
27 | CCOc1ccc(C2=NCC(CBr)S2)cc1 (configuration not stated) | inactive: -1.92%
28 | CC(=O)Nc1ccc([As](=O)(O)O)c(O)c1 | inactive: -0.04%
29 | CC(=O)Nc1ccc(Oc2c([N+](=O)[O-])cc([N+](=O)[O-])cc2[N+](=O)[O-])cc1 | inactive: 2.5%
30 | CC(=O)c1ccc(N2CC2c2ccncc2)cc1 (configuration not stated) | inactive: 0.67%
31 | N#C/C(=C\c1ccc(N(CCBr)CCBr)cc1)C(N)=O | inactive: -0.72%
32 | COC(=O)C1(C)COP(=O)(NCc2ccccc2)OC1 (configuration not stated) | inactive: -0.18%
33 | CC1C(=O)OC2CCN3CC=C(COC(=O)C(C)(O)C1(C)O)C23 (configuration not stated) | inactive: -0.44%
34 | Cc1ccccc1CN(C)C(=O)COC(=O)C(O)(c1ccccc1)c1ccccc1 | inactive: 2.06%
35 | CCN(CC)CCOC(=O)C(O)(c1ccccc1)c1ccccc1 | inactive: -1.4%
36 | C[C@H]1OP(=O)(Oc2ccccc2)C[C@@H]2O[C@@H]21 (some centres not stated) | inactive: 6.1%
37 | C[C@@H]1C=CCP(=O)(Oc2ccccc2)O1 (some centres not stated) | inactive: -0.14%
38 | COc1ccccc1OP(=O)(Nc1ccc(C)cn1)Oc1ccccc1OC | inactive: 2.49%
39 | CC(C)[C@H]1C(=O)O[C@@H]2CCN3CC=C(COC(=O)[C@](C)(O)[C@]1(C)O)[C@H]23 | inactive: -7.4%
40 | Cc1ccc(OP(=O)(Nc2nccs2)Oc2ccc(C)cc2)cc1 | inactive: 2.99%
41 | CN1CCCC(OC(=O)C(c2ccccc2)c2ccccc2)C1 (configuration not stated) | inactive: -15.2%
42 | Clc1ccc(Cl)c(NC2=NCC(CBr)S2)c1 (configuration not stated) | inactive: -5.46%

Row | Compound | activation
43 | NC(=O)c1cc([N+](=O)[O-])cc([N+](=O)[O-])c1N | inactive: 2.71%
44 | CN(C(=O)Cc1ccc(Cl)c(Cl)c1)[C@H]1CCCC[C@H]1N1CCCC1 | inactive: -1.99%
45 | Cc1ccc(N/C(=N/P(=O)(N2CCOCC2)N2CCOCC2)N2CCOCC2)cc1 | inactive: -0.78%
46 | O=[N+]([O-])C1C(O)C(O)C([N+](=O)[O-])C(O)C1O (configuration not stated) | inactive: 0.51%
47 | Nc1cc(N)c2nonc2c1[N+](=O)[O-] | inactive: -0.08%
48 | CC(C)CC(=O)NC(Sc1ccc(Cl)cc1)C(Cl)(Cl)Cl (configuration not stated) | inactive: -5.07%
49 | Oc1ccccc1CNc1ccccn1 | inactive: 0.05%
50 | O=C(NC(Sc1ccncn1)C(Cl)(Cl)Cl)c1ccccc1 (configuration not stated) | inactive: 0.5%
51 | Cc1cc(SC(NC(=O)c2ccc(F)cc2)C(Cl)(Cl)Cl)ncn1 (configuration not stated) | inactive: -0.23%
52 | CCOP(=O)(Nc1ccccc1)OCC | inactive: -4.6%
53 | Cc1ccc(NP(=O)(Oc2ccccc2F)Oc2ccccc2F)nc1 | inactive: 5.64%
54 | CN(C(=O)Cc1ccc(Cl)c(Cl)c1)[C@H]1CCCC[C@@H]1N1CCCC1 | inactive: -0.54%
55 | CC(=O)Nc1ccc([As](=O)(O)O)cc1 | inactive: -5.45%
56 | O=C(O)c1ccccc1[As](=O)(O)O | inactive: -2.56%
57 | CCCC1OP(N)(=O)OCC1CC (configuration not stated) | inactive: 4.78%
58 | CC(=O)O[C@]1(C)C(=O)OC/C2=C/CN(C)CCC(OC(=O)[C@@](O)(C(C)O)C[C@H]1C)C2=O (some centres not stated) | inactive: -1.39%
59 | O=P(Nc1nc2ccc(Cl)cc2s1)(c1ccccc1)c1ccccc1 | inactive: -3.36%
60 | CN(C)P(=O)(N(C)C)n1c(Nc2ccccc2)nnc1-c1ccccc1 | inactive: -0.69%
61 | CCN(N=Nc1nonc1N)c1nonc1N | inactive: -2.5%
62 | Nc1cccc2ccc([As](=O)(O)O)cc12 | inactive: -2.03%
